{"source": "patent EP0154117B1", "about": "(dated 1985)", "test_system": "B6 Lymphocytes", "experiment": "Proliferative responses of lymphocytes to Con A and LPS (3H-TdR incorporation)"}
{"smiles": "Cl.Cl.NCCNc1ccc(NCCN)c2c1C(=O)c1c(O)ccc(O)c1C2=O", "values": [{"measurement": "viability as determined by trypan blue dye exclusion", "setting": "1 to 10-^2 µg/ml", "value": "without altering their viability"}, {"measurement": "blast transformation of mouse lymphocytes in response to Con A", "setting": "10-^3 µg/ml, 3 days, 3H-TdR incorporated into cellular DNA", "value": "significantly decreased"}, {"measurement": "blast transformation of mouse lymphocytes in response to LPS", "setting": "10^-4 µg/ml, 3 days, 3H-TdR incorporated into cellular DNA", "value": "significantly decreased"}]}
